Assay results taken from PubChem BioAssay AID652115 (Broad Institute, 2013).
The entries are a selection whose mix differs from that of the whole data set. Calls of active or inactive are those of the source. No stated cut-off is given here; in the data, active means inhibition above about 15%; inconclusive means no clear call, values can overlap the other calls; inactive means below that.

Chains of the proteins cited; added tags and fusions are not shown.
UniProt Q9NXA8, whole entry: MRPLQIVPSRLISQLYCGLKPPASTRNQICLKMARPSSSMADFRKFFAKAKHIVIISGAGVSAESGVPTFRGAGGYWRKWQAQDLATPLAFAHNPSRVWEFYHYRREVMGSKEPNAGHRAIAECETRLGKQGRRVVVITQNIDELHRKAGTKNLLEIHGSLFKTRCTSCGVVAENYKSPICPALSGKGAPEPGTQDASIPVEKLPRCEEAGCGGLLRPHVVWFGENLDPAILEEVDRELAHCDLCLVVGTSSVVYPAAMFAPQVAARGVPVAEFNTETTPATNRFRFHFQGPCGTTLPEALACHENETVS

Target: NAD-dependent protein deacylase sirtuin-5, mitochondrial (Homo sapiens) (UniProt Q9NXA8)
Experiment: SIRT5 desuccinylase inhibitors, primary screen, biochemical, fluorescence imaging, single point, set 5 (AID 652115)
Settings: Purified SirT5, succinyl-peptide AMC, trypsin-coupled fluorescence; at 15 µM; active compounds read high

SMILES | inhibition
Cc1cccc(NC2(C#N)CCN(Cc3ccccc3)CC2)c1 | inactive: -3.77%
CSc1ccccc1C(=O)NCC1(N2CCCCC2)CCCCC1 | inactive: -1.9%
COc1ccc(C(=O)NCC2(N3CCCCC3)CCCCC2)c(OC)c1OC | inactive: 0.314%
CC(C)(C)OC(=O)N1CCC(N(C(=O)c2ccccc2)c2ccc(F)cc2)CC1 | inactive: -0.533%
CCC(c1nnnn1C1CCCC1)N1CCC(n2c(=O)[nH]c3ccccc32)CC1 (stereo unspecified) | inactive: -0.328%
COc1ccc(C(=O)NCC2(N3CCCCC3)CCCCC2)cc1 | inactive: -6.79%
CCCCn1nnnc1C(CC)N1CCC(n2c(=O)[nH]c3ccccc32)CC1 (stereo unspecified) | inactive: -0.422%
O=C(NCC1(N2CCCCC2)CCCCC1)c1cccs1 | inactive: -1.35%
CCCCn1nnnc1C(c1cccs1)N1CCC(n2c(=O)[nH]c3ccccc32)CC1 (stereo unspecified) | inactive: 0.81%
O=C(NCC1(N2CCCCC2)CCCCC1)c1ccc(=O)[nH]c1 | inactive: -2.97%
COc1ccc(Cl)cc1C(=O)NCC1(N2CCOCC2)CCCCC1 | inactive: -4.83%
N#CC1(Nc2ccccc2)CCN(Cc2ccccc2)CC1 | inactive: 0.456%
O=C(NCC1(N2CCCCC2)CCCCC1)c1ccc(Cl)s1 | inactive: -0.184%
O=c1[nH]c2ccccc2n1C1CCN(C(c2cc3ccccc3o2)c2nnnn2C2CCCCC2)CC1 (stereo unspecified) | inactive: -1.78%
O=C(OC1CN2CCC1CC2)C1c2ccccc2Oc2ccccc21 (stereo unspecified) | inactive: -0.572%
CCCCn1nnnc1C(c1ccc(OC)cc1)N1CCC(n2c(=O)[nH]c3ccccc32)CC1 (stereo unspecified) | inactive: -1.03%
CCOC(=O)N1CCC(Nc2ccc(OC)cc2)CC1 | inactive: -11.9%
Cc1cc(C)cc(N(C(=O)c2ccccc2)C2CCN(C(=O)OC(C)(C)C)CC2)c1 | inactive: 6.06%
O=C(NCC1(N2CCCCC2)CCCCC1)c1ccc(Cl)nc1 | inactive: 3.62%
O=c1[nH]c2ccccc2n1C1CCN(C(c2ccccc2OC(F)(F)F)c2nnnn2C2CCCCC2)CC1 (stereo unspecified) | inactive: -0.197%
CCOC(=O)N1CCC(Nc2ccc(F)cc2)CC1 | inactive: 1.67%
CCCCOc1ccc(C(=O)NCC2(N3CCOCC3)CCCCC2)cc1 | inactive: -0.567%

SMILES | inhibition
CCCCn1nnnc1C(c1cc2ccccc2o1)N1CCC(n2c(=O)[nH]c3ccccc32)CC1 (stereo unspecified) | inactive: -2.94%
O=C(NCC1(N2CCCCC2)CCCCC1)c1ccc(F)cc1 | inactive: 0.407%
O=C1CCN(Cc2ccccc2)CC1 | inactive: -2%
CC(C)(C)n1nnnc1C(c1ccccc1)N1CCC(n2c(=O)[nH]c3ccccc32)CC1 (stereo unspecified) | inactive: -2.71%
CCOc1ccc(C)cc1CN(CCCl)CCCl | inactive: -7.32%
COc1cc(C(=O)NCC2(N(C)C)CCCCC2)ccc1OC(F)F | inactive: -2.32%
O=c1[nH]c2ccccc2n1C1CCN(C(c2cccc3ccccc23)c2nnnn2C2CCCC2)CC1 (stereo unspecified) | inactive: -2.02%
O=c1[nH]c2ccccc2n1C1CCN(C(c2ccccc2)c2nnnn2C2CCCCC2)CC1 (stereo unspecified) | inactive: -0.8%
O=c1[nH]c2ccccc2n1C1CCN(C(c2ccccc2OC(F)(F)F)c2nnnn2C2CCCC2)CC1 (stereo unspecified) | inactive: -0.999%
CSc1ccc(C(=O)NCC2(N3CCOCC3)CCCCC2)cc1 | inactive: -0.497%
O=C(NCC1(N2CCCCC2)CCCCC1)c1cccc([N+](=O)[O-])c1 | inactive: -3.39%
O=C(NCC1(N2CCCCC2)CCCCC1)c1ccc(OC(F)F)cc1 | inactive: -2.15%
CC(C)(C)n1nnnc1C(c1ccccc1OC(F)(F)F)N1CCC(n2c(=O)[nH]c3ccccc32)CC1 (stereo unspecified) | inactive: -0.429%
COc1cc(C(=O)NCC2(N3CCCCC3)CCCCC2)ccc1OC(F)F | inactive: 0.786%
COc1ccc(NC2CCN(C(=O)OC(C)(C)C)CC2)cc1 | inactive: -0.271%
CC(C)c1ccc(C(=O)NCC2(N3CCOCC3)CCCCC2)cc1 | inactive: -2.61%
CN1CCN(CCOC(=O)C(O)(c2ccccc2)c2ccccc2)CC1 | inactive: -4.76%
CCCCn1nnnc1C(c1cccc2ccccc12)N1CCC(n2c(=O)[nH]c3ccccc32)CC1 (stereo unspecified) | inactive: 1.11%
O=C(NCC1(N2CCCCC2)CCCCC1)c1cccc(C(F)(F)F)c1 | inactive: -4.81%
CCC(c1nnnn1C(C)(C)C)N1CCC(n2c(=O)[nH]c3ccccc32)CC1 (stereo unspecified) | inactive: 1.32%
O=C(NCC1(N2CCOCC2)CCCCC1)c1cc(F)c(F)cc1Cl | inactive: -3.1%
COc1cc(OC)c(C(=O)NCC2(N(C)C)CCCCC2)cc1OC | inactive: -1.74%

SMILES | inhibition
CCCCn1nnnc1C(c1ccnc2ccccc12)N1CCC(n2c(=O)[nH]c3ccccc32)CC1 (stereo unspecified) | inactive: -2.08%
CC(C)c1ccc(NC2CCN(C(=O)OC(C)(C)C)CC2)cc1 | inactive: 0.438%
CN(C)c1cccc(C(=O)NCC2(N3CCCCC3)CCCCC2)c1 | inactive: -1.94%
COc1ccc(CN(CCCl)CCCl)cc1Cl | inactive: 10.6%
COc1ccc(C(c2nnnn2C2CCCC2)N2CCC(n3c(=O)[nH]c4ccccc43)CC2)cc1 (stereo unspecified) | inactive: -0.81%
CCCOc1ccc(C(=O)NCC2(N(C)C)CCCCC2)cc1OC | inactive: -3.64%
CN1CCC(Nc2cccc(F)c2)CC1 | inactive: 11.8%
O=C(NCC1(N2CCCCC2)CCCCC1)c1cncc(Br)c1 | inactive: -5.21%
O=c1[nH]c2ccccc2n1C1CCN(C(c2ccnc3ccccc23)c2nnnn2C2CCCC2)CC1 (stereo unspecified) | inactive: 2.27%
COc1ccc(C(=O)NCC2(N3CCOCC3)CCCCC2)cc1OC | inactive: 6.64%
COc1cc(C(=O)NCC2(N3CCOCC3)CCCCC2)cc(OC)c1C | inactive: 0.484%
CCCCn1nnnc1C(c1ccccc1)N1CCC(n2c(=O)[nH]c3ccccc32)CC1 (stereo unspecified) | inactive: -0.158%
O=C(NCC1(N2CCOCC2)CCCCC1)c1cc(Br)ccc1Cl | inactive: -5.96%
O=c1[nH]c2ccccc2n1C1CCN(C(c2cccs2)c2nnnn2C2CCCC2)CC1 (stereo unspecified) | inactive: 0.988%
CCCCn1nnnc1C(c1cccc(OC)c1OC)N1CCC(n2c(=O)[nH]c3ccccc32)CC1 (stereo unspecified) | inactive: 10.9%
COc1cccc(C(c2nnnn2C(C)(C)C)N2CCC(n3c(=O)[nH]c4ccccc43)CC2)c1OC (stereo unspecified) | inactive: -1.66%
N#Cc1ccc(C(=O)NCC2(N3CCCCC3)CCCCC2)cc1 | inactive: -3.18%
CC(C)(C)OC(=O)N1CCC(N(C(=O)c2ccccc2)c2ccc(Cl)cc2)CC1 | inactive: 5.18%
CC(C)(C)n1nnnc1C(c1cccc2ccccc12)N1CCC(n2c(=O)[nH]c3ccccc32)CC1 (stereo unspecified) | inactive: 4.54%
CN(C)C1(CNC(=O)c2cccc(C#N)c2)CCCCC1 | inactive: -0.827%
O=c1[nH]c2ccccc2n1C1CCN(C(c2ccccc2)c2nnnn2C2CCCC2)CC1 (stereo unspecified) | inactive: 1.65%
Cc1cc(N(CCCl)CCCl)ccc1C=O | inactive: 0.912%

SMILES | inhibition
Fc1ccccc1NC1CCN(Cc2ccccc2)CC1 | inactive: 1.29%
Cc1ccc(C(=O)NCC2(N3CCCCC3)CCCCC2)o1 | inactive: -2.21%
Cc1ccc(NC2(C#N)CCN(Cc3ccccc3)CC2)cc1 | inactive: 2.15%
CCC(c1nnnn1C1CCCCC1)N1CCC(n2c(=O)[nH]c3ccccc32)CC1 (stereo unspecified) | inactive: 5.69%
COc1cccc(C(c2nnnn2C2CCCCC2)N2CCC(n3c(=O)[nH]c4ccccc43)CC2)c1OC (stereo unspecified) | inactive: -0.729%
CC(=O)N(c1ccccc1)C1CCNCC1 | inactive: -4.81%
COc1cc(OC)cc(C(=O)NCC2(N3CCCCC3)CCCCC2)c1 | inactive: 0.74%
O=c1[nH]c2ccccc2n1C1CCN(C(c2ccnc3ccccc23)c2nnnn2C2CCCCC2)CC1 (stereo unspecified) | inactive: 0.88%
Cn1c(=O)[nH]cc(N(CCCl)CCCl)c1=O | inactive: -2.69%
O=C(NCC1(N2CCCCC2)CCCCC1)c1ccco1 | inactive: -0.145%
COc1ccc(C(c2nnnn2C2CCCCC2)N2CCC(n3c(=O)[nH]c4ccccc43)CC2)cc1 (stereo unspecified) | inactive: -4.67%
CC(C)(C)n1nnnc1C(c1ccnc2ccccc12)N1CCC(n2c(=O)[nH]c3ccccc32)CC1 (stereo unspecified) | inactive: 0.628%
NN(c1ccccc1)C1CCN(CCc2ccccc2)CC1 | inactive: -1.31%
O=C(O)C1(Nc2ccccc2)CCN(Cc2ccccc2)CC1 | inactive: -1.33%
CC(C)(C)OC(=O)N1CCC(Nc2ccccc2)CC1 | inactive: -3.69%
O=c1[nH]c2ccccc2n1C1CCN(C(c2cc3ccccc3o2)c2nnnn2C2CCCC2)CC1 (stereo unspecified) | inactive: 8.6%
CCCOc1ccc(C(=O)NCC2(N(C)C)CCCCC2)cc1 | inactive: -6.77%
COc1cccc(C(=O)N(c2cc(C)cc(C)c2)C2CCN(C(=O)OC(C)(C)C)CC2)c1 | inactive: 8.99%
COc1cccc(C(c2nnnn2C2CCCC2)N2CCC(n3c(=O)[nH]c4ccccc43)CC2)c1OC (stereo unspecified) | inactive: -2.58%
COc1cc(OC)cc(C(=O)NCC2(N3CCOCC3)CCCCC2)c1 | inactive: -1.2%
